This note sets out measurements from patent publication US8088763B2 (priority 2004, dated 2012).

By UniProt entry, the sequences of proteins in these tests, tags left out. Where a name states a change or a piece, a line headed by the entry shows the natural chain unless it says otherwise. Residues count along the entry.
UniProt Q63380, 1-617 limits assumed: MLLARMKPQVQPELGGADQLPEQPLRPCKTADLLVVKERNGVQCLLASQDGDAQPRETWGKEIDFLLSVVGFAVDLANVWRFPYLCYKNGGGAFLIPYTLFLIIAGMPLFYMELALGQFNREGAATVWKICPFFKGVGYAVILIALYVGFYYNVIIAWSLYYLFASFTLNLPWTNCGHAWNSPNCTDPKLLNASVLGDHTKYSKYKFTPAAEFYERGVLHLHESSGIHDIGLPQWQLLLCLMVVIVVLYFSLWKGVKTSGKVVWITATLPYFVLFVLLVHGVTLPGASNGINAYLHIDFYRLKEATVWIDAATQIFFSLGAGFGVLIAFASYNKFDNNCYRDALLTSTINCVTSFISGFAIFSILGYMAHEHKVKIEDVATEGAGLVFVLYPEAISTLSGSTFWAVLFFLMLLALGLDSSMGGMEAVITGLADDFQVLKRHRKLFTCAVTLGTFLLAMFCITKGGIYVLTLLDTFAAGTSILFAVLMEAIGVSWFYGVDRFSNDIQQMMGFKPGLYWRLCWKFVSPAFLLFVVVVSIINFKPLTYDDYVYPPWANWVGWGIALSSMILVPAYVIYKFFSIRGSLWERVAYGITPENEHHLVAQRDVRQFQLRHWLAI
UniProt P31652, whole entry, looked up: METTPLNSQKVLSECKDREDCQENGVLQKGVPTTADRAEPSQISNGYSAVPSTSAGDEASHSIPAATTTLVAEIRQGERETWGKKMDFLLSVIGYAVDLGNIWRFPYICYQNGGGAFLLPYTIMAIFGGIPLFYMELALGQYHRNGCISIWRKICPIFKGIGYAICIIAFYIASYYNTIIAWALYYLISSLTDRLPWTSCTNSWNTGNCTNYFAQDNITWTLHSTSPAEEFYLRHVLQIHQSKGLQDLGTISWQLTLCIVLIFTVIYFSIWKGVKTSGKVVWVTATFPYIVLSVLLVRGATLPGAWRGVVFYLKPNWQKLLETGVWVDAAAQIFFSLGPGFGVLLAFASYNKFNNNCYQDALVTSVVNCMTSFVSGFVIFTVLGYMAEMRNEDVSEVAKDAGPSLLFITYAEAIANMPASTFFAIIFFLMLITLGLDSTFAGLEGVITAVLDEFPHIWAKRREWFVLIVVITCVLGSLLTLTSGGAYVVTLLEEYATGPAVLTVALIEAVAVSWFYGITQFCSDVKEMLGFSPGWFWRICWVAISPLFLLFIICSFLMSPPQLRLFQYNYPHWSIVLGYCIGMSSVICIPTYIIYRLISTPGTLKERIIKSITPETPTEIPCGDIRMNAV
UniProt P35372, whole entry, looked up: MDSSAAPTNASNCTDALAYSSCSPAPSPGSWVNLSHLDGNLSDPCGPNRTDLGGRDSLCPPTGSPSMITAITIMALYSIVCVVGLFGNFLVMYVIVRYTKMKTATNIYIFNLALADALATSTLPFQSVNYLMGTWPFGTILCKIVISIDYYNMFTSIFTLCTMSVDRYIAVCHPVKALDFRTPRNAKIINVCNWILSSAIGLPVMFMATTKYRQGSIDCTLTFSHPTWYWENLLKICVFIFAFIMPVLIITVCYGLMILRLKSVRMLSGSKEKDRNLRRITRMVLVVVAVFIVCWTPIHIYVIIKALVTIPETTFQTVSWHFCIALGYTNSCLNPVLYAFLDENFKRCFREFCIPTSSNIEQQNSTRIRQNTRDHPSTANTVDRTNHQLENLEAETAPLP
UniProt P41146: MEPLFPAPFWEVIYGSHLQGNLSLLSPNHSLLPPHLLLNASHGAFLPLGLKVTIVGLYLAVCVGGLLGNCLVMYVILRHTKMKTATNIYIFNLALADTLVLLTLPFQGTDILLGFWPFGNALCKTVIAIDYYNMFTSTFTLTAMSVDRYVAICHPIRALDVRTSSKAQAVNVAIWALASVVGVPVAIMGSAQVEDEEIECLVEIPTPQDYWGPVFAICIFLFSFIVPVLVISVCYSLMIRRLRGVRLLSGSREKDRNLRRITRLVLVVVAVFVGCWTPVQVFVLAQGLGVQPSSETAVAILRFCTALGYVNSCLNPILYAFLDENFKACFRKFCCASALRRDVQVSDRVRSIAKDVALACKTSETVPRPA

The target in one assay is NA-uptake (Rattus norvegicus, UniProt Q63380). The experiment in a line: Noradrenalin re-uptake in rat brain synaptosomes (P2 fraction, hypothalamus). Type of assay: biochemical. To be noted: 10 μM test compound.
The target in a further assay is 5HT-uptake (Rattus norvegicus, UniProt P31652). The experiment in a line: Serotonin re-uptake in rat brain synaptosomes (P2 fraction, medulla+pons). The assay is classed as biochemical. The note with it: 10 μM test compound.
The target in the next assay is human μ-opiate receptor (Homo sapiens, UniProt P35372). The experiment in a line: μ-binding: displacement of [3H]-naloxone, receptor membrane preparation of CHO-K1 cells. To be noted: 1 μM test compound; 1 nmol/l [3H]-naloxone. In general terms: Loss of bound radioactivity is the signal in a displacement assay; it reports binding, not function.
The next assay has as its target ORL1 receptor (Homo sapiens, UniProt P41146). Briefly: ORL1 binding: receptor binding assay with 3H-nociceptin/orphanin FQ, membranes of recombinant CHO-ORL1 cells. To be noted: 1 μM test compound; 0.5 nM 3H-nociceptin/orphanin FQ.

With `Cc1cccc(CC2(N(C)C)CCC(NC(=O)CCC(=O)NCc3cccc(Br)c3)CC2)c1` (stereo not shown), the “NA-uptake [10 μM], % inhibition” value on NA-uptake is 102%. In addition, the “5HT-uptake [10 μM], % inhibition” value at 5HT-uptake was 97%. For the same compound, the “μ-binding, [1 μM], % inhibition” value on human μ-opiate receptor is 53%.
For `Cc1cccc(CC2(N(C)C)CCC(NC(=O)CCC(=O)NC(C)CCc3ccccc3)CC2)c1` (stereo not shown), in that order: 96%, 94% and 57%.
For `CN(C)C1(Cc2ccccc2)CCC(NC(=O)CCCC(=O)N2CCN(Cc3c(Cl)cccc3Cl)CC2)CC1` (stereo not shown), the “NA-uptake [10 μM], % inhibition” value at NA-uptake is 95%. Besides, the “5HT-uptake [10 μM], % inhibition” value on 5HT-uptake is given as 100%. The “μ-binding, [1 μM], % inhibition” value at human μ-opiate receptor turned out to be 55%.
As to `Cc1cccc(CC2(N(C)C)CCC(NC(=O)CCC(=O)NCCc3cccs3)CC2)c1` (stereo not shown), the “NA-uptake [10 μM], % inhibition” value on NA-uptake was 85%. In addition, the “5HT-uptake [10 μM], % inhibition” value at 5HT-uptake stood at 92%. Moreover, the “μ-binding, [1 μM], % inhibition” value at human μ-opiate receptor was determined as 59%.
In the case of `CN(C)C1(Cc2cccc(Cl)c2)CCC(NC(=O)CCC(=O)NCc2cc(Cl)cc(Cl)c2)CC1` (stereo not shown), the “NA-uptake [10 μM], % inhibition” value on NA-uptake turned out to be 94%. The “5HT-uptake [10 μM], % inhibition” value on 5HT-uptake came out at 92%. For the same compound, at human μ-opiate receptor, the “μ-binding, [1 μM], % inhibition” value worked out at 60%.
Turning to `CN(C)C1(c2cccs2)CCC(NC(=O)CCC(=O)NCC23CC4CC(CC(C4)C2)C3)CC1` (stereo not shown), the “ORL1-binding, [1 μM], % inhibition” value at ORL1 receptor is given as 90%.
On to `CN(C)C1(c2cccs2)CCC(NC(=O)CCCC(=O)Nc2ccc(C(C#N)c3ccccc3)cc2)CC1` (stereo not shown), for which the “ORL1-binding, [1 μM], % inhibition” value at ORL1 receptor stood at 77%.
On the same count and under the same terms, the result for `CN(C)C1(c2cccs2)CCC(NC(=O)CCCC(=O)NCc2cccc3ccccc23)CC1` (stereo not shown) reads 98%; that for `CN(Cc1ccccc1)C(=O)CCCC(=O)NC1CCC(c2cccs2)(N(C)C)CC1` (stereo not shown), 96%.
As to `Cc1cccc(CC2(N(C)C)CCC(NC(=O)CCC(=O)NC3Cc4ccccc4C3)CC2)c1` (stereo not shown), on NA-uptake, the “NA-uptake [10 μM], % inhibition” value amounted to 101%. Also, the “5HT-uptake [10 μM], % inhibition” value on 5HT-uptake is 96%. Moreover, the “μ-binding, [1 μM], % inhibition” value on human μ-opiate receptor is 54%.
For `CCC(C)c1ccc(NC(=O)CCCC(=O)NC2CCC(c3cccs3)(N(C)C)CC2)cc1` (stereo not shown), the “ORL1-binding, [1 μM], % inhibition” value on ORL1 receptor is given as 94%.
`CN(C)C1(c2cccs2)CCC(NC(=O)CCCC(=O)NCc2cccc(Br)c2)CC1` (stereo not shown): at ORL1 receptor, the “ORL1-binding, [1 μM], % inhibition” value is reported as 97%.
On to `CN(C)C1(c2ccccc2)CCC(NC(=O)CCC(=O)NCCc2ccc(Cl)cc2)CC1` (stereo not shown), for which the “ORL1-binding, [1 μM], % inhibition” value at ORL1 receptor worked out at 92%.
On to `Cc1cccc(CC2(N(C)C)CCC(NC(=O)CCC(=O)NCCc3cccc(F)c3)CC2)c1` (stereo not shown), for which, on NA-uptake, the “NA-uptake [10 μM], % inhibition” value is reported as 99%. Also, on 5HT-uptake, the “5HT-uptake [10 μM], % inhibition” value is on record as 93%. The “μ-binding, [1 μM], % inhibition” value on human μ-opiate receptor stood at 56%.
With “Glutaric acid-(4-dimethylamino-4-thiophen- 2-yl-cyclohexyl)-amide 3-trifluoromethoxy- benzylamide”, on ORL1 receptor, the “ORL1-binding, [1 μM], % inhibition” value is listed as 92%.
Same read-out and setting: the result for “Glutaric acid-(4-dimethylamino-4-thiophen- 2-yl-cyclohexyl)-amide[2-(3-fluoro- phenyl)-ethyl]-amide” reads 97%; that for `CN(C)C1(c2ccccc2)CCC(NC(=O)CCC(=O)NCC23CC4CC(CC(C4)C2)C3)CC1` (stereo not shown), 72%; that for `CCOC(=O)C(Cc1ccc(Cl)cc1)NC(=O)CCCC(=O)NC1CCC(c2cccs2)(N(C)C)CC1` (stereo not shown), 73%.
On the same count and under the same terms, the figure for `CN(C)C1(c2cccs2)CCC(NC(=O)CCCC(=O)N2CC=C(c3ccc(F)cc3)CC2)CC1` (stereo not shown) is 79%; for `CN(C)C1(c2cccs2)CCC(NC(=O)CCCC(=O)NC2CCc3ccccc32)CC1` (stereo not shown) it is 80%.
On the same count and under the same terms, the result for `CN(C)C1(c2cccs2)CCC(NC(=O)CCCC(=O)NC2CC2c2ccccc2)CC1` (stereo not shown) reads 84%; that for `CC(CCc1ccccc1)NC(=O)CCCC(=O)NC1CCC(c2cccs2)(N(C)C)CC1` (stereo not shown), 90%; that for `CN(C)C1(c2cccs2)CCC(NC(=O)CCCC(=O)Nc2cccc(Oc3ccccc3)c2)CC1` (stereo not shown), 98%.
In the case of “Glutaric acid-(4-benzyl-4-dimethylamino- cyclohexyl)-amide[2-(5-bromo-2-methoxy- phenyl)-ethyl]-amide”, the “NA-uptake [10 μM], % inhibition” value at NA-uptake came to 109%. Further, on 5HT-uptake, the “5HT-uptake [10 μM], % inhibition” value was 96%. Further, the “μ-binding, [1 μM], % inhibition” value at human μ-opiate receptor was 89%.
Consider `CN(C)C1(c2ccccc2)CCC(NC(=O)CCC(=O)NCCc2cccc(Cl)c2)CC1` (stereo not shown), for which, on ORL1 receptor, the “ORL1-binding, [1 μM], % inhibition” value was determined as 98%.
For `CCOc1ccccc1CN(Cc1ccco1)C(=O)CCC(=O)NC1CCC(c2cccs2)(N(C)C)CC1` (stereo not shown), the “ORL1-binding, [1 μM], % inhibition” value at ORL1 receptor worked out at 76%.
With `CN(C)C1(c2cccs2)CCC(NC(=O)CCC(=O)N2CCC(Cc3ccccc3)CC2)CC1` (stereo not shown), the “ORL1-binding, [1 μM], % inhibition” value on ORL1 receptor is 96%.
As to `CN(C)C1(c2cccs2)CCC(NC(=O)CCCC(=O)NCCC(c2ccccc2)c2ccccc2)CC1` (stereo not shown), the “ORL1-binding, [1 μM], % inhibition” value on ORL1 receptor is reported as 86%.
With “Glutaric acid-(4-dimethylamino-4-thiophen- 2-yl-cyclohexyl)-amide 4-trifluoromethyl- benzylamide”, on ORL1 receptor, the “ORL1-binding, [1 μM], % inhibition” value stood at 85%.
In the case of `CCN(CCNC(=O)CCC(=O)NC1CCC(c2ccccc2)(N(C)C)CC1)c1cccc(C)c1` (stereo not shown), at ORL1 receptor, the “ORL1-binding, [1 μM], % inhibition” value was 71%.
In the case of “Glutaric acid-(4-benzyl-4-dimethylamino- cyclohexyl)-amide[1-(2,6-dichloro-benzyl)- pyrrolidin-3-yl]-amide”, the “NA-uptake [10 μM], % inhibition” value on NA-uptake was found to be 102%. For the same compound, the “5HT-uptake [10 μM], % inhibition” value on 5HT-uptake worked out at 96%. Moreover, the “μ-binding, [1 μM], % inhibition” value at human μ-opiate receptor is on record as 67%.
In the case of `CN(CCc1c[nH]c2ccccc12)C(=O)CCC(=O)NC1CCC(c2ccccc2)(N(C)C)CC1` (stereo not shown), the “ORL1-binding, [1 μM], % inhibition” value at ORL1 receptor amounted to 100%.
Still for that read-out and setting: the result for `COc1ccc(OCCNC(=O)CCC(=O)NC2CCC(c3ccccc3)(N(C)C)CC2)cc1` (stereo not shown) reads 74%; that for `CN(C)C1(c2cccs2)CCC(NC(=O)CCC(=O)NCCCc2ccccc2)CC1` (stereo not shown), 96%.
For `CC(CNC(=O)CCCC(=O)NC1CCC(c2cccs2)(N(C)C)CC1)c1ccc(Cl)cc1` (stereo not shown), the “ORL1-binding, [1 μM], % inhibition” value at ORL1 receptor is on record as 98%.
For the compound `COc1ccc(OCCNC(=O)CCC(=O)NC2CCC(c3cccs3)(N(C)C)CC2)cc1` (stereo not shown), the “ORL1-binding, [1 μM], % inhibition” value at ORL1 receptor worked out at 72%.
For the compound `CN(C)C1(c2cccs2)CCC(NC(=O)CCCC(=O)Nc2ccc(OCc3ccccc3)cc2)CC1` (stereo not shown), the “ORL1-binding, [1 μM], % inhibition” value at ORL1 receptor came to 90%.
On the same count and under the same terms, the result for `CN(C)C1(c2cccs2)CCC(NC(=O)CCC(=O)NCCSCc2ccccc2)CC1` (stereo not shown) reads 98%.
In the case of “Glutaric acid-(4-benzyl-4-dimethylamino- cyclohexyl)-amide[2-(4-fluoro-phenyl)- ethyl]-amide”, the “NA-uptake [10 μM], % inhibition” value at NA-uptake was determined as 94%. The “5HT-uptake [10 μM], % inhibition” value on 5HT-uptake came to 94%. Also, the “μ-binding, [1 μM], % inhibition” value on human μ-opiate receptor is listed as 65%.
Regarding `CN(C)C1(c2cccs2)CCC(NC(=O)CCC(=O)NCCc2cccc(C(F)(F)F)c2)CC1` (stereo not shown), the “ORL1-binding, [1 μM], % inhibition” value at ORL1 receptor turned out to be 98%.
Same read-out and setting: the result for `CN(C)C1(c2cccs2)CCC(NC(=O)CCC(=O)N2CCC(O)(c3cccc(C(F)(F)F)c3)CC2)CC1` (stereo not shown) reads 82%.
The same measure, in the same setting: the figure for `CN(C)C1(c2cccs2)CCC(NC(=O)CCC(=O)NCCc2cccc(Cl)c2)CC1` (stereo not shown) is 98%; for `CN(C)C1(c2ccccc2)CCC(NC(=O)CCC(=O)NCCc2cccc(F)c2)CC1` (stereo not shown) it is 94%; for `CCCCc1ccc(NC(=O)CCCC(=O)NC2CCC(c3cccs3)(N(C)C)CC2)cc1` (stereo not shown) it is 97%.
Same read-out and setting: the result for “Glutaric acid-(4-dimethylamino-4-thiophen- 2-yl-cyclohexyl)-amide[2-(4-phenoxy- phenyl)-ethyl]-amide” reads 99%; that for `CN(C)C1(c2cccs2)CCC(NC(=O)CCC(=O)NCCc2ccc(Br)cc2)CC1` (stereo not shown), 88%.
As for `CN(C)C1(c2cccs2)CCC(NC(=O)CCCC(=O)NCc2cccc(Cl)c2)CC1` (stereo not shown), the “ORL1-binding, [1 μM], % inhibition” value at ORL1 receptor stood at 93%.
`Cc1ccccc1CNC(=O)CCC(=O)NC1CCC(Cc2cccc(Cl)c2)(N(C)C)CC1` (stereo not shown): the “NA-uptake [10 μM], % inhibition” value on NA-uptake was found to be 98%. In addition, at 5HT-uptake, the “5HT-uptake [10 μM], % inhibition” value was determined as 96%. In addition, the “μ-binding, [1 μM], % inhibition” value on human μ-opiate receptor is on record as 56%.
For the compound `CCCCCNC(=O)CCC(=O)NC1CCC(c2cccs2)(N(C)C)CC1` (stereo not shown), on ORL1 receptor, the “ORL1-binding, [1 μM], % inhibition” value was 77%.
Consider `Cc1cccc(Cl)c1CNC(=O)CCC(=O)NC1CCC(Cc2cccc(Cl)c2)(N(C)C)CC1` (stereo not shown), for which the “NA-uptake [10 μM], % inhibition” value at NA-uptake came out at 97%. Also, the “5HT-uptake [10 μM], % inhibition” value on 5HT-uptake turned out to be 97%. For the same compound, on human μ-opiate receptor, the “μ-binding, [1 μM], % inhibition” value is 64%.
Turning to `CN(C)C1(Cc2cccc(Cl)c2)CCC(NC(=O)CCC(=O)N2CCSCC2)CC1` (stereo not shown), at NA-uptake, the “NA-uptake [10 μM], % inhibition” value is given as 92%. Moreover, the “5HT-uptake [10 μM], % inhibition” value on 5HT-uptake is given as 94%. Also, at human μ-opiate receptor, the “μ-binding, [1 μM], % inhibition” value was 57%.
Take `CN(C)C1(c2cccs2)CCC(NC(=O)CCCC(=O)NCCc2cccs2)CC1` (stereo not shown): the “ORL1-binding, [1 μM], % inhibition” value at ORL1 receptor stood at 97%.
`CC(NC(=O)CCCC(=O)NC1CCC(c2cccs2)(N(C)C)CC1)C12CC3CC(CC(C3)C1)C2` (stereo not shown): the “ORL1-binding, [1 μM], % inhibition” value at ORL1 receptor was determined as 76%.
